# Like-named read-outs stand apart in the source and are kept apart here.
# Tests used:
# [1] = test system: COLO-205 human colon carcinoma xenografts
# [2] = test system: COLO-205 human colon carcinoma xenografts; remark: listed apart in the source
# [3] = test system: COLO-205 human colon carcinoma xenografts; remark: listed apart in the source
structure (smiles),measurement,setting,value
"O=C(NOC[C@H](O)CO)c1ccc(F)c(F)c1Nc1ccc(I)cc1F [Compound A, N-[(R)-2,3-Dihydroxy-propoxy]-3,4-difluoro-2-(2-fluoro-4-iodo-phenylamino)-benzamide]",CR (complete response),[1]; Compound A 3.13 mg/kg QD alone,6/10
same,Non-specific Deaths,[1]; Compound A 3.13 mg/kg QD alone,0/10
same,PR (partial response),[1]; Compound A 3.13 mg/kg QD alone,3/10
same,Tumor Free (day 118),[1]; Compound A 3.13 mg/kg QD alone,0/10
same,CR (complete response),[1]; Compound A 6.25 mg/kg QD alone,9/10
same,Non-specific Deaths,[1]; Compound A 6.25 mg/kg QD alone,0/10
same,PR (partial response),[1]; Compound A 6.25 mg/kg QD alone,1/10
same,Tumor Free (day 118),[1]; Compound A 6.25 mg/kg QD alone,1/10
same,Non-specific Deaths,[1]; Compound A 25 mg/kg QD alone,8/10
same,CR (complete response),[2]; Compound A 3.13 mg/kg qd alone,1/10
same,Non-specific Deaths,[2]; Compound A 3.13 mg/kg qd alone,0/10
same,PR (partial response),[2]; Compound A 3.13 mg/kg qd alone,3/10
same,Tumor Free (day 112),[2]; Compound A 3.13 mg/kg qd alone,0/10
same,Non-specific Deaths,[2]; Compound A 6.25 mg/kg qd alone,1/10
same,PR (partial response),[2]; Compound A 6.25 mg/kg qd alone,2/10
same,Tumor Free (day 112),[2]; Compound A 6.25 mg/kg qd alone,1/10
same,Non-specific Deaths,[2]; Compound A 25 mg/kg qd alone,4/10
same,CR (complete response),[3]; Compound A 3.13 mg/kg qd alone,7/10
same,Non-specific Deaths,[3]; Compound A 3.13 mg/kg qd alone,0/10
same,PR (partial response),[3]; Compound A 3.13 mg/kg qd alone,2/10
same,Tumor Free (day 129),[3]; Compound A 3.13 mg/kg qd alone,0/10
same,CR (complete response),[3]; Compound A 6.25 mg/kg qd alone,8/10
same,Non-specific Deaths,[3]; Compound A 6.25 mg/kg qd alone,1/10
same,PR (partial response),[3]; Compound A 6.25 mg/kg qd alone,1/10
same,Tumor Free (day 129),[3]; Compound A 6.25 mg/kg qd alone,1/10
same,Non-specific Deaths,[3]; Compound A 25 mg/kg qd alone,8/10
